{"sequences": {"note": "Chains of the proteins cited; added tags and fusions are not shown. Residues count along the entry.", "UniProt P40238, 26-635": "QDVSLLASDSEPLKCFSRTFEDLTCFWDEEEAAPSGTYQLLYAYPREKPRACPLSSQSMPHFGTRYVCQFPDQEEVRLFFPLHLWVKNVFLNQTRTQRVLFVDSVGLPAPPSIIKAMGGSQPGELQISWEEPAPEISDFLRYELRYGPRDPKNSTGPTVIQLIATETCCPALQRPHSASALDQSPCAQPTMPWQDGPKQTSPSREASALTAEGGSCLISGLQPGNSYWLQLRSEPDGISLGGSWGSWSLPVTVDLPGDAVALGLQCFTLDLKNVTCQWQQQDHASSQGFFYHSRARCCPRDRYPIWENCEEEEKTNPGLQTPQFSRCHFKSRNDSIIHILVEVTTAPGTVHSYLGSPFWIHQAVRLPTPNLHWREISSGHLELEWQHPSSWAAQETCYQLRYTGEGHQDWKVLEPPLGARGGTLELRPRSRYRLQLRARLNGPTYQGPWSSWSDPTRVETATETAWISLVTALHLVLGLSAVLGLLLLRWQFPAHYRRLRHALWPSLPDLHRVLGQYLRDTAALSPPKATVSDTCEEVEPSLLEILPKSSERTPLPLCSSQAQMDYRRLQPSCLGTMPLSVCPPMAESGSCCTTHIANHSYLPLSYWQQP"}, "source": "patent US7332474B2", "about": "“Peptides and related compounds having thrombopoietic activity” (Amgen Inc., priority 2001, dated 2008)", "molecular_target": "hu-mpl (Homo sapiens, UniProt P40238)", "details": "BIACORE 3000, room temperature, hu-mpl immobilized on CM5 chip, 22 amino acid capped peptides"}
{"sequence": "SAQGIEGPTLRQWLAARALETV [TMP1, reference compound]", "values": [{"measurement": "Kd", "value": 5.4, "unit": "nM"}]}
